Experimental findings from ChEMBL document CHEMBL1149338, “Synthesis and in vitro evaluation of salvinorin A analogues: effect of configuration at C(2) and substitution at C(18)” (Bioorg Med Chem Lett, 2006) are described below.

The chains behind the UniProt entries cited, without tags or fusion partners. Where a name states a change or a piece, a line headed by the entry shows the natural chain unless it says otherwise.
UniProt P41145: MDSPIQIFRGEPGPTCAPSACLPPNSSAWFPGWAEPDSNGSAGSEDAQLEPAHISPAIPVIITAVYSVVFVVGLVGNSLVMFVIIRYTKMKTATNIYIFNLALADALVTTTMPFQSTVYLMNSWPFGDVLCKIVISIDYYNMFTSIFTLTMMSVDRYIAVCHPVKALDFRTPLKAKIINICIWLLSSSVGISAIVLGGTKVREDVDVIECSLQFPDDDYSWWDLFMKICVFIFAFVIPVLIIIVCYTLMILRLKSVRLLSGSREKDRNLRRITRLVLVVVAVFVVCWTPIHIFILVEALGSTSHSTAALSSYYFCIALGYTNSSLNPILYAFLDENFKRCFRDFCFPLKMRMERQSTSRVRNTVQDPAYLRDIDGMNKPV

This test has as its target Kappa-type opioid receptor (Homo sapiens, UniProt P41145). Nature of the test: Enhancement of [35S]GTP-gamma-S binding to human KOR expressed in CHO cells relative to U50,488H. The format is functional, cell-based.

Take `COC(=O)[C@@H]1C[C@@H](OC(C)=O)C(=O)[C@H]2[C@@]1(C)CC[C@H]1C(=O)O[C@H](c3ccoc3)C[C@]21C`: the Efficacy came out at 102%.
